ChEMBL document CHEMBL3421625, “Discovery and optimization of novel antagonists to the human neurokinin-3 receptor for the treatment of sex-hormone disorders (Part I)” (J Med Chem, 2015)

By UniProt entry, the sequences of proteins in these tests, tags left out.
UniProt P29371, whole entry: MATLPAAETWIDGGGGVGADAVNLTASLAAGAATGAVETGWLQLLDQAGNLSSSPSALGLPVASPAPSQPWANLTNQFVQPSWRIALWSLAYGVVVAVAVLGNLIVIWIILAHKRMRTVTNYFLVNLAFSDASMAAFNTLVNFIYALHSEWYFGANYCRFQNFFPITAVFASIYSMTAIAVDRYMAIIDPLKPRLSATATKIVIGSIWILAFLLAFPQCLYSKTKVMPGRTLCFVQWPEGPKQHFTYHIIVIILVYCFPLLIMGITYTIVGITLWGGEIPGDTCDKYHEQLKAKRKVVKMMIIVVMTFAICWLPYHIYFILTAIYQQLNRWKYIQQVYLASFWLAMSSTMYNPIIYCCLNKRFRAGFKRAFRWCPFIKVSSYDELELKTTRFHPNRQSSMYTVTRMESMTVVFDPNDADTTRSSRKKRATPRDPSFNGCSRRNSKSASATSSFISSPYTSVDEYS

Target: Neuromedin-K receptor (Homo sapiens, UniProt P29371)

Cc1nc(-c2nnc3n2CCN(C(=O)c2ccc(-c4cccs4)cc2)[C@H]3C)cs1
pIC50: 6.30

pIC50: −log10 of the molar value.
